Target: T1, E-cNOS (Type 3) (Bos taurus, UniProt P29473)
T1 construct: the resulting supernatant was used as the crude enzyme sample of E-cNOS; endogenous in cells; host or cells: CPAE (cow pulmonary arterial endothelium cells), 1% Triton X-100 extract, 100,000 x g supernatant
Assay: biochemical

## CNC(=N)NCCC[C@H](N)C(=O)O [L-NMMA, N^G-monomethyl-L-arginine, reference compound]
  IC50: 490 nM

Source: patent US6534546B1 (Chugai Seiyaku Kabushiki Kaisha, priority 1994, dated 2003)
